# Measured values: patent US20130316985A1, “GPR35 Ligands And Uses Thereof” (CORNING INCORPORATED, priority 2012, published 2013)
# Amino acid sequences for entries named in this document (tags omitted).
# UniProt Q9HC97, whole entry: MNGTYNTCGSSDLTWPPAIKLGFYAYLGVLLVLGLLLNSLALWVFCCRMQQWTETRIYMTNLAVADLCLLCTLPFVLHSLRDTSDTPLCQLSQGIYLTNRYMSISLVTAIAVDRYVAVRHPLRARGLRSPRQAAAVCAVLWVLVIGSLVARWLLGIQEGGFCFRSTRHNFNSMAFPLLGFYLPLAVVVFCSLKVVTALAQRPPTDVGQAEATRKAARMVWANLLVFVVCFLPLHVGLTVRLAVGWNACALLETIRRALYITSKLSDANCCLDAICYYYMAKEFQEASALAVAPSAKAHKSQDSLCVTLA
# What was measured:
# GPR35 [1] = molecular target: T1, GPR35 (Homo sapiens, UniProt Q9HC97); experiment: Tango β-arrestin translocation gene reporter assay in U2OS-GPR35-bla cells; assay type: cell-based
# GPR35 [2] = molecular target: T1, GPR35; experiment: DMR agonism assay in native HT-29 cells (Epic optical biosensor); settings: maximal DMR response in HT-29 (2,5-DNP: amplitude at 50 min)
smiles,measurement,setting,value
CC(=O)C(=Cc1cc(O)c(O)c([N+](=O)[O-])c1)C(C)=O,"efficacy (Tango, normalized to maximal response of zaprinast)","GPR35 [1]; U2OS-GPR35-bla, zaprinast maximal response in same plate = 100%",13%
same,Efficacy Tango,GPR35 [1]; maximal response normalized to the zaprinast maximal response,13 ± 1 % zaprinast
same,Efficacy DMR,GPR35 [2],207 ± 14 pm
